Here are results for one compound from US6479495B1, “Aminoalkylphenol derivatives and related compounds” (priority 1997, dated 2002).

Amino acid sequences for entries named in this document (tags omitted).
UniProt P22909, whole entry: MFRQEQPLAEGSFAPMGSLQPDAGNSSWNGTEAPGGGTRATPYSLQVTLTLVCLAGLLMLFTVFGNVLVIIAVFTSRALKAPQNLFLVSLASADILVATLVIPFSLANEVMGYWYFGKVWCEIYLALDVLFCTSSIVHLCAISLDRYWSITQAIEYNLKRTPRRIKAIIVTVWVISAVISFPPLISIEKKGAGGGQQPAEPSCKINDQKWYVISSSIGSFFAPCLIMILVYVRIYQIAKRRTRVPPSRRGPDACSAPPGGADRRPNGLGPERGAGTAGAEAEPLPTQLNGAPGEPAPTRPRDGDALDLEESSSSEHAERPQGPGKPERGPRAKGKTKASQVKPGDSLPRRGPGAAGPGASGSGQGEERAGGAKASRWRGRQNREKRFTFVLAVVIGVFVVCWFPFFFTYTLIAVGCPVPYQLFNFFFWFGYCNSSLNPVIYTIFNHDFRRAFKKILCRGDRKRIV

The experiment concerns the target clonidine: α2-receptor (Rattus norvegicus, UniProt P22909). The conditions noted are these: read-out: Inhibition of clonidine binding activity IC50.

SMILES strings stand for the structures. pIC50: −log10 of the molar value.

In the case of `CN(C)CCC=C1c2ccccc2CCc2ccccc21` [amitriptyline], the pIC50 (as a rule, −log10 of the IC50, conventionally taken in molar units) is 7.41.
